Key:
[1] = test system: C. elegans diakinesis oocytes; assay: Diakinesis oocyte analysis (chromosome condensation, SYP-1, AIR-2, pH3); details: 1 mM E2; 0.15 mM 4-HT
Source text: Proper processing of recombination events is coupled with the formation of mature bivalents during the diakinesis stage such that in mutants where recombination intermediate processing is impaired, bivalent maturation is delayed.
Associated with the changes in chromatin morphology, the SC is disassembled during late diakinesis in a tightly controlled fashion. Accordingly, SC components, such as SYP-1, are detectable on the short arms of the bivalent in the −3 oocyte but are essentially absent from the bivalents of −2 and −1 oocytes. Thus, whether a delay in chromosome remodeling could correlate with an incomplete disassembly of SC components in late diakinesis was examined.
Accurate chromosome segregation at meiosis I is characterized by the carefully orchestrated loss of cohesion between homologs coupled with retention of cohesion between sister chromatids. […] Phospho histone H3 (pH3) is a canonical substrate for the activity of AIR-2 [59] and accordingly, although it accumulates in the −3 to −1 oocytes, it is only detected on the short arms of the bivalent in the −1 oocyte in the presence of AIR-2 [56, 57].
BPA bears endocrine disrupting activity in many developmental contexts including gonadal, brain and mammary gland development. […] Similarly to the experiments described above, the size of the mitotic zone was quantified as well as condensation defects at diakinesis. […]

[2] = Maximum concentration dissolvable in medium; type: physicochemical; details: plate medium
Source text: BPA bears endocrine disrupting activity in many developmental contexts including gonadal, brain and mammary gland development. BPA has affinity for multiple members of the estrogen receptors family, in particular BPA binds to the human estrogen receptor alpha (ERα) and ERβ as well as estrogen-related receptor gamma (ERR-γ) and in C. elegans with nuclear hormone receptor NHR-14 which also binds estrogen. […] Two hallmarks of exposure to BPA were examined, the decrease in the size of the proliferative zone and the condensation defects observed at diakinesis, as they are both highly penetrant and consistent phenotypes. […] Similarly to the experiments described above, the size of the mitotic zone was quantified as well as condensation defects at diakinesis.
Growing Conditions and Drug Exposures. Worms were cultured according to [23] at 20° C. on NGM plates without cholesterol. […] Exposure was carried from embryogenesis to adulthood by plating sodium hypochloride treated eggs onto drug and control plates and incubated at 20° C. for four days.

4-hydroxy-tamoxifen [4-HT]
bivalent maturation / condensation defects at diakinesis [1]: moderate condensation defects | maximum concentration dissolvable in medium [2]: 0.15 mM

Reference: patent US20120028837A1, “RAPID SCREEN FOR REPRODUCTIVE TOXICANTS” (PRESIDENT AND FELLOWS OF HARVARD COLLEGE, priority 2010, published 2012)
